The text below walks through data of EP3300733A1, “SUBSTANCE SELECTED AMONG IRINOTECAN, AN IRINOTECAN ACTIVE METABOLITE, 5-FLUORO-URACILE, A PHARMACEUTICAL SALT THEREOF AND A MIXTURE THEREOF, FOR USE IN THE TREATMENT OF FIBROSIS” (Centre Hospitalier Universitaire de Bordeaux, priority 2016, dated 2018).

In this assay the test system is procollagen I. Nature of the assay: effect of a combination of low SN38 and 5FU doses on procollagen I release (ELISA). The conditions noted are these: SN38 0.006 µg/ml alone (condition A), 48h; patient SSC2, SSC3 or H2. In kind it is cell-based, human. The procedure: Dermal fibroblasts were obtained from clinically affected skin of systemic sclerosis (SSC) patients and from healthy donors (H). The fibroblasts were grown in DMEM medium containing 2mM of L-glutamine supplemented with 10% foetal bovine serum (FCS) and penicillin/streptomycin antibiotics. For the experiments, cells were starved 24h before the addition of irinotecan, SN38 or 5FU in DMEM 0-1% FCS. mRNA analysis
Dermal fibroblasts were plated in DMEM 10% FCS supplemented with 20µg/mL of vitamin C in 96-well plates. 24h before the experiment, medium was switched to DMEM 0% FCS supplemented with 20µg/mL of vitamin C. Cells were treated for 48h with SN38 (0.006 µg/mL), 5FU (1 µg/mL) or a combination (SN38 0.006 µg/mL and 5FU 1 µg/mL) in DMEM 0% FCS supplemented with 20µg/mL of vitamin C. Supernatants were collected to evaluate the procollagen I release level by ELISA kit (ref MK101, supplier Takara) according to manufacter's instructions. Triplicates were done. The level of procollagen I release was presented as fold change compared with the procollagen I release by the same non-treated fibroblasts arbitrary fixed at 100%.
A general note: ELISA stands for enzyme-linked immunosorbent assay.

Take `CCc1c2c(nc3ccc(O)cc13)-c1cc3c(c(=O)n1C2)COC(=O)[C@]3(O)CC` [SN38, 7-Ethyl-10-hydroxy-camptothecin]: the “procollagen I release” value is on record as “not observed”.
